Experimental data: article PMC12728655, “Engineering an Artificial Myxopyronin Derivative with Enhanced Metabolic Stability via Mutasynthesis” (JACS Au, 2025)

Tested on: M. xanthus DK1622 CP-4^W S91A mutant
Assay: Mutasynthon supplementation of producer strain
Details: supplementation at the tested concentrations; MYX A production diminished completely

## CCC/C(C)=C/C=C(\C)C(=O)Sc1ccccc1 [compound 48]
  toxicity to the strain: exhibited toxicity to the strain
